# US4826847A, “Beta-blocking oxindole derivatives” (Boehringer Mannheim GmbH, priority 1984, dated 1989)
# Tested on: livers
# Assay: denitration rate relative to isosorbide-5-mononitrate (Vrel): NO2 freed in perfusate of re-perfused rat livers
# Details: rat liver perfusion 4 min, 5×10^-5 M/l, NO2 determined in the perfusate; high values = fast denitration
compound,measurement,value
O=[N+]([O-])O[C@H]1CO[C@H]2[C@@H]1OC[C@H]2O[N+](=O)[O-],Vrel (denitration rate in relation to isosorbide-5-mononitrate),17.5
